Usually IC50 stands for the concentration that gives 50% inhibition. High values mean weaker potency in that assay, low ones greater potency in that assay.

Sequences of proteins named here, by UniProt entry; tags and fusion partners are left off. A change or cut given only in a name is not applied to a line headed by its entry.
UniProt O42275: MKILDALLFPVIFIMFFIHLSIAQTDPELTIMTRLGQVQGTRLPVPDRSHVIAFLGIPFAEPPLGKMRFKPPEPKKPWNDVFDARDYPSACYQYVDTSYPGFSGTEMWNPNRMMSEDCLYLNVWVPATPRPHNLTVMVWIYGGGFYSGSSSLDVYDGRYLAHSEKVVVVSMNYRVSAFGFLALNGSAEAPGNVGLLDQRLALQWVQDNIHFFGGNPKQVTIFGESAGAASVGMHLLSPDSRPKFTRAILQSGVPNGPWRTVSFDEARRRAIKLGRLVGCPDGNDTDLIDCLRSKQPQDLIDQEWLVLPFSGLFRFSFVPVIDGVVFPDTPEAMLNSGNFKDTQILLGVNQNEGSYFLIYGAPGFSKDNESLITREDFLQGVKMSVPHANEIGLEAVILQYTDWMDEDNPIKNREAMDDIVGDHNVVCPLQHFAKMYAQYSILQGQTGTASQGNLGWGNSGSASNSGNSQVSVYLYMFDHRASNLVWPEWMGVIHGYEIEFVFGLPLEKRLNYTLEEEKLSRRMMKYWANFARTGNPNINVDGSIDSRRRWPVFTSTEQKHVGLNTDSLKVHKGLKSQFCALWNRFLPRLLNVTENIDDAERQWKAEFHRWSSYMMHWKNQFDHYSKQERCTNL

Consider 1 compound from US20040127518A1, “Modulation of anxiety through blockade of anandamide hydrolysis” (priority 2002, published 2004).

This assay addresses electric eel acetylcholinesterase (Electrophorus electricus, UniProt O42275). The assay can be described thus: biochemical.

Molecules are shown by their SMILES. Structures can show the parent of a compound that is named as a salt.

The compound `CNC(=O)Oc1ccc2c(c1)[C@@]1(C)CCN(C)[C@H]1N2C` [PL#16, (−)-Physostigmine sulfate, reference compound] displayed an IC50 of 580 nM.
